These results are taken from PubChem BioAssay AID1865 (National Center for Advancing Translational Sciences (NCATS), 2009).

The nature of this experiment: Quantitative High-Throughput Screen for Regulators of Epigenetic Control. Note: % of control where 0% means no effect; nearly all actives have a fitted effect of over 60% in size. The conditions noted are these: murine LDR cells, GFP reporter derepression, 30 h; at 53.9 µM (top of the series) unless noted. The text has this: NIH Molecular Libraries Screening Centers Network [MLPCN] NIH Chemical Genomics Center [NCGC] MLSCN Grant: 1 X01 MH079860-01 Assay Provider: Elisabeth D. Martinez, University of Texas SW Medical Center NCGC Assay Overview: The Locus Derepression (LDR) assay detects the derepression or induction of a GFP reporter that is stably integrated in a genomic region of murine cells that is presumably silenced. Transcription of the GFP reporter is controlled by a CMV promoter, which normally is constitutively active. However, this cell line, termed LDR, was selected for lack of constitutive production of GFP. GFP production can be induced by incubating the cells with histone deacetylase or DNA methyltransferase inhibitors (Martinez et al., 2006). Compounds that derepress or induce this reporter locus are identified by enumerating GFP positive cells using a laser-scanning microplate cytometer (Auld et al., 2006). This assay was screened against the MLSMR earlier (AID 597; (Johnson et al., 2008) and has been rescreened here against the expanded collection.
NCGC Assay Protocol Summary: Three hundred LDR cells in 5 uL per well were dispensed into black, clear-bottom 1536-well plates. Twenty-three nL compound was transferred to the assay plate and cells were incubated 30 hours at 37 C. Medium was removed, cells were washed two times with PBS, and GFP-positive cells were enumerated as fluorescent objects between the sizes of 20 to 120 um width and depth using an Acumen Explorer. References Auld, DS, Johnson, RL, Zhang, YQ, Veith, H, Jadhav, A, Yasgar, A, Simeonov, A, Zheng, W, Martinez, ED, Westwick, JK, Austin, CP, Inglese, J (2006). Fluorescent protein-based cellular assays analyzed by laser-scanning microplate cytometry in 1536-well plate format. Methods Enzymol 414: 566-89. Johnson, RL, Huang, W, Jadhav, A, Austin, CP, Inglese, J, Martinez, ED (2008). A quantitative high-throughput screen identifies potential epigenetic modulators of gene expression. Anal Biochem 375: 237-48. Martinez, ED, Dull, AB, Beutler, JA, Hager, GL (2006). High-content fluorescence-based screening for epigenetic modulators. Methods Enzymol 414: 21-36.

“And” between values parts separate entries of the source, which are not always exact repeats. Equal entries are not always repeated. The entries are a selection whose mix differs from that of the whole data set. The source made the active and inactive calls. Calls come from the whole dose curve; as a rule, active = well fitted activation curve with a large enough effect; inconclusive = small, poorly fitted or top-dose-only effect; inactive = flat fitted curve, though single readings scatter.

Consider `Nc1cccc2ccc([As](=O)(O)O)cc12`, for which the GFP activation was inactive: -0.222%.
Regarding `CCN(N=Nc1nonc1N)c1nonc1N`, the GFP activation is inactive: 0%.
Regarding `O=P(Nc1nc2ccc(Cl)cc2s1)(c1ccccc1)c1ccccc1`, the GFP activation was inactive: 0%.
With `CC(=O)Nc1ccc([As](=O)(O)O)cc1`, the GFP activation was inactive: -1.08%.
Turning to `O=C(O)c1ccccc1[As](=O)(O)O`, the GFP activation is inactive: -3.23%.
The result for `Cc1ccc(NP(=O)(Oc2ccccc2F)Oc2ccccc2F)nc1` reads inactive: 0%; that for `CN(C(=O)Cc1ccc(Cl)c(Cl)c1)[C@H]1CCCC[C@@H]1N1CCCC1`, inactive: 0.833% [middle of 8 runs].
Then `Cc1cc(SC(NC(=O)c2ccc(F)cc2)C(Cl)(Cl)Cl)ncn1` (stereo not given), with inactive: -0.99%; and `CCOP(=O)(Nc1ccccc1)OCC`, with inactive: -8.96% and inactive: -0.259%; and `O=C(NC(Sc1ccncn1)C(Cl)(Cl)Cl)c1ccccc1` (stereo not given), with inactive: -3.17%.
For the compound `Cc1c2non([O-])c-2c(C)[n+](=O)[n+]1[O-]`, the GFP activation is inactive: 12.8%.
On to `Oc1ccccc1CNc1ccccn1`, for which the GFP activation is inactive: -4.15%.
For `Nc1cc(N)c2nonc2c1[N+](=O)[O-]`, the GFP activation is inactive: 0.311%.
The result for `CC(C)CC(=O)NC(Sc1ccc(Cl)cc1)C(Cl)(Cl)Cl` (stereo not given) reads inactive: -0.508%.
The result for `Cc1ccc(N/C(=N/P(=O)(N2CCOCC2)N2CCOCC2)N2CCOCC2)cc1` reads inactive: -0.233%.
The result for `NC(=O)c1cc([N+](=O)[O-])cc([N+](=O)[O-])c1N` reads inactive: 3.97%; that for `CN1CCCC(OC(=O)C(c2ccccc2)c2ccccc2)C1` (stereo not given), inactive: 0.192%.
Take `Clc1ccc(Cl)c(NC2=NCC(CBr)S2)c1` (stereo not given): the GFP activation was inactive: 1.06%.
On to `Cc1ccc(OP(=O)(Nc2nccs2)Oc2ccc(C)cc2)cc1`, for which the GFP activation was inactive: 1.87%.
Regarding `COc1ccccc1OP(=O)(Nc1ccc(C)cn1)Oc1ccccc1OC`, the GFP activation was inactive: 2.36%.
For the compound `CCN(/C(=N/P(=O)(N1CCOCC1)N1CCOCC1)N1CCOCC1)c1ccc(OC)cc1`, the GFP activation is inactive: 2.56%.
Take `C[N+]1=C2C=CC=CC=C2SC12C([N+](=O)[O-])=CC([N+](=O)[O-])=C[C-]2[N+](=O)[O-]` (stereo not given): the GFP activation is inactive: -1.08%.
On to `Nc1ccc([As](=O)(O)c2ccc(N)cc2)cc1`, for which the GFP activation was inactive: 3.25%.
The result for `CC1CCN(C(=O)Oc2c(Cl)cc(Cl)c3cccnc23)CC1` reads inactive: 2.83%; that for `CC(=O)C1=CCCC2CCC1N2` (stereo not given), inactive: -1.89% and inactive: 0%.
For `CN(C)C(=O)OCCc1n(C)cc[n+]1C`, the GFP activation was inactive: -1.49%.
The result for `CC(C)=N/N=C(\N)N[N+](=O)[O-]` reads inactive: -6.35%; that for `COc1ccc(C2=NCC(CBr)S2)cc1` (stereo not given), inactive: 0.508%; that for `CCc1nc2c(n1)c1c(non1O)c1c2no[n+]1[O-]`, inactive: -2.12%.
In the case of `O=[N+]([O-])c1cc([N+](=O)[O-])c(CCNc2ccccc2)c([N+](=O)[O-])c1`, the GFP activation was inactive: 0.244%.
Take `Cc1ccc(NP(=O)(Oc2ccccc2)Oc2ccccc2)nc1`: the GFP activation was inactive: 2.25%.
Then `O=[N+]([O-])c1cccc2n[nH]nc12`, with inactive: -0.567%; and `CC(=O)N1C2C3N(C(C)=O)C1C1N(C(C)=O)C(C(N1C(C)=O)N3C(C)=O)N2C(C)=O`, with inactive: 2.11%.
Turning to `O=[N+]([O-])c1ncn(CCn2ncnc2[N+](=O)[O-])n1`, the GFP activation was inactive: 5.62%.
Then `CC(C)(C)C(=O)NC(Sc1ccncn1)C(Cl)(Cl)Cl` (stereo not given), with inactive: -3.06%; and `O=C(O)CNc1ccc([As](=O)(O)O)cc1`, with inactive: -0.281%; and `O=[N+]([O-])c1cccc(NC2=NCC(CBr)S2)c1` (stereo not given), with inactive: 0%.
For `O=C(Nc1cc([As](=O)(O)O)ccc1O)c1ccccc1`, the GFP activation is inactive: 0.433%.
With `O=[As](O)(c1ccccc1)c1ccc(O)cc1`, the GFP activation was inactive: 1.08%.
For `O=[N+]([O-])c1ncn(CCn2cnc([N+](=O)[O-])n2)n1`, the GFP activation is inactive: 0%.
`CC(=O)NC(SC(=S)N(C)C)C(Cl)(Cl)Cl` (stereo not given): the GFP activation is inactive: -0.216%.
Take `O=C(OC1CN2CCC1CC2)c1cccc(Cl)c1` (stereo not given): the GFP activation is inactive: -1.83%.
The result for `C(Cc1nn[nH]n1)Cc1nn[nH]n1` reads inactive: -5.27%; that for `Nc1ccc([As](=O)(O)c2ccc([N+](=O)[O-])cc2)cc1`, inactive: 5.44%; that for `O=P(Nc1ccccn1)(c1ccc(Br)cc1)c1ccc(Br)cc1`, inactive: -0.229%.
The result for `CN(C(=O)Cc1ccccc1)[C@H]1CC[C@@]2(CCCO2)C[C@@H]1N1CCCC1` reads inactive: 0%; that for `C[C@H]1OP(=O)(Oc2ccccc2)[C@H](O)[C@H](O)[C@H]1N=[N+]=[N-]` (stereo not given in full), inactive: 0.99%; that for `O=P(Nc1nc2ccccc2s1)(c1ccccc1)c1ccccc1`, inactive: -0.281%.
Consider `CC(C)C(=O)NC(Sc1ccccc1)C(Cl)(Cl)Cl` (stereo not given), for which the GFP activation was inactive: -1.04%.
`O=P(Nc1nccs1)(c1ccccc1)c1ccccc1`: the GFP activation is inactive: -1.14%.
